Molecular target: caspase-3 (NCBI accession no: NP-004337.2), human, purchased from R&D Systems (human) (UniProt P42574)
Assay: cell-based or functional assay

Substance “ApoHsp (cage protein formed by the fusion protein of Hsp, DEVD motif and histidine polymer, labelled with Cy5.5 and BHQ3) (from UniProt Q57733 1-147)” has a fluorescence signal on reaction with caspase-3, relative to the single peptide probe of 20 to 50 times.

Reference: patent US20130230562A1
